# Test results as given in patent US11684675B2, “Dimeric collagen hybridizing peptides and methods of using” (University of Utah Research Foundation, priority 2015, dated 2023).
# Molecular target: denatured collagen
# Assay: ELISA-like assay, Kd
# Type: binding
# Settings: 25° C.
# Description: Dimeric CHP is able to hybridize effectively with denatured collagens with faster folding kinetics than current, monomeric CHPs. Surface plasmon resonance (SPR) was used to measure the ability of the CHPs to trap denatured collagen from solution.
row,Kd [nM],Substance
1,621,[(GPO)6G3)2KG [6d]
2,573,"(GPO)9-G3K^Biotin [b-9, reference compound]"
